System: IMR90 normal, human lung fibroblasts
Details: listed as JG-294

SMILES: CCn1c(=O)/c(=C2\Sc3cc(Br)ccc3N2C)s/c1=C\c1scc[n+]1Cc1ccc(C(F)(F)F)o1.[Cl-] [Compound 60]
- Selectivity Index (IMR-90/MCF7): more than 98
